Settings: BSA dissolved in water at pH 7.0

For Bovine Serum Albumin [BSA], the “ethanol concentration above which coacervate phase forms” value was “exceeds 45 wt %”.

— patent publication US20080089927A1, “Methods for Coacervation Induced Liposomal Encapsulation and Formulations Thereof” (priority 2006, published 2008)
